# Patent publication US11396548B2, “EGFR targeted therapy of neurological disorders and pain” (Sykehuset Sørlandet HF, priority 2012, dated 2022)
# “Also recorded” adds a separate entry of the source.
# Experiments:
# [1] = test system: patients with neuropathic pain; assay: Case reports: relief of neuropathic pain by EGFR inhibitors (0-10 NRS / Brief Pain Inventory); type: in vivo, human; conditions: for NP relief (summary of the cases): conditions where proximal and/or distal parts of peripheral nerves were affected
# Experimental: The term “in vivo” refers to the natural environment (e.g., an animal or a cell) and to processes or reaction that occur within a natural environment. […] Pain interference is assessed using the Brief Pain Inventory (BPI). BPI is used to evaluate pain interference with the following: (a) general activity, (b) mood, (c) walking ability, (d) normal work, (e) relations with other people, (f) sleep, and (g) enjoyment of life. Total score for pain interference is calculated as: (Mean score of non-missing questions)×(7/number of non-missing questions). If four or more questions are missing, the pain interference total score is set to missing.
# In some cases, the patients were asked to complete a BPI short form daily, just before and during the EGFR inhibition, in order to document their neuropathic pain and thus, help us to judge their responses and guide treatment decisions.
# [2] = Case reports: side effects of EGFR inhibitors; type: in vivo, human
# [3] = Case reports: concomitant analgesic / opioid requirement during EGFR inhibition; type: in vivo, human
# [4] = Case reports: performance status, function, quality of life and accompanying symptoms; type: in vivo, human; conditions: Case 2
# [5] = test system: pelvic tumor (recurrent rectal cancer); assay: MRI of pelvic tumor during cetuximab treatment (case 1); type: in vivo, human
# Description: FIGS. 1a-d describe graphically the clinical course of case 1 over period of 69 months. Progression of the pelvic tumor in case 1 during this period is shown in the magnetic resonance image (MRI) in FIG. 2a-c.
# FIGS. 2a-c. Recurrent and progressive rectal cancer. Arrows indicate tumor changes affecting the left sacral plexus and left sciatic nerve. 2a. […] There is a presacral recurrence that extends along the left sciatic nerve. 2b. […] Both the presacral recurrence and its extension along the sciatic nerve have increased in size. […] There is further progression of the recurrence in the presacral area and along the left sciatic nerve.
# tumor cell = conditions: cited from earlier work
# human tumor = conditions: nude mice; cited from earlier work
# [6] = Case 2, yrs, complex regional pain syndrome type 1 of the right hand, sequence cetuximab, panitumumab, cetuximab, gefitinib, erlotinib
# [7] = Case 3, yrs, radiculopathy due to failed back surgery syndrome, two weekly cetuximab infusions, then gefitinib tablets, then panitumumab
# [8] = Case 4, yrs, bladder cancer recurrence invading sacral nerve roots, cetuximab (effect within hours) then oral gefitinib
# [9] = Case 1, 450 mg, 12-day cycles, 2-4 months
compound,measurement,setting,value
COc1cc2ncnc(Nc3ccc(F)c(Cl)c3)c2cc1OCCCN1CCOCC1 [gefitinib],Neuropathic pain response,[1]; [6],continued to be completely relieved
same,Neuropathic pain response,[1]; [7],continued to increase for the first two days of oral treatment; also recorded: gradually improved to levels as good as those they had experienced with cetuximab; also recorded: completely alleviated after two to three weeks of treatment
same,Neuropathic pain response,"[1]; Case 3, yrs, radiculopathy due to failed back surgery syndrome, two weekly cetuximab infusions, then gefitinib tablets, then panitumumab, listed as Gefitinib",NP recurred after three days
same,Time to analgesic response,"[1]; Case 3, oral gefitinib after cetuximab washout",one week
same,Pain score after three weeks of gefitinib,"[1]; Case 3, oral gefitinib after complete cetuximab washout with pain recurrence",0 /10
same,Neuropathic pain response,[1]; [8],Complete relief from NP was maintained through and beyond this transition; also recorded: completely relieved by gefitinib for 277 days of follow-up
same,NP relief (summary of the cases),[1],led to complete NP relief
same,Side effect,"[2]; Case 2, nineteen weeks after first gefitinib dose",elevated liver transaminases
same,Side effect,"[2]; Case 3, one month after starting gefitinib",pneumonia
same,Side effect,"[2]; Case 3, one month after starting gefitinib, listed as Gefitinib",interstitial lung disease (ILD) could not be excluded
cetuximab,Result of treatment: duration of less pain,"[1]; Case 1, 450 mg first infusion and 350 mg third infusion","cetuximab infusion, lasting 2 weeks"
same,Result of treatment: time to less pain after cetuximab infusion,"[1]; Case 1, 450 mg first infusion and 350 mg third infusion (time 0, 4 weeks)",Less pain within 4 hours of
same,Result of treatment: duration of less pain,[1]; [9],lasting 10-14 days
same,Result of treatment: time to less pain after cetuximab infusion,[1]; [9],within 4 hours
same,Analgesic effect at reduced dose,"[1]; Case 1, 20% of the normal cetuximab dose, patient unaware",no analgesic effect
same,Neuropathic pelvic pain response,"[1]; Case 1, cetuximab in combination with XELOX (capecitabine and oxaliplatin)","completely gone; also recorded: completely, or nearly completely, disappeared within four to five hours"
same,Neuropathic pain response,"[1]; Case 1, cetuximab monotherapy 450 mg i.v./250 mg per m^2, roughly every 12 days, 20 months, cancer in progression",improved dramatically; also recorded: continued to be best controlled with cetuximab; also recorded: continued to have the dramatic analgesic effect
same,Clinical picture,"[1]; Case 1, cetuximab monotherapy 550 mg, 5-8 months, within hours, especially on peak pain",positive effect
same,Duration of effective analgesia,"[1]; Case 1, cetuximab monotherapy at previously effective dose",under 2 weeks
same,Time to effective analgesia after infusion,"[1]; Case 1, cetuximab monotherapy at previously effective dose, approximately every 12 days",4 to 5 h
same,Clinical picture,"[1]; Case 1, cetuximab monotherapy, 4 weeks to 2-4 months",Significantly less pain. Pain recurrence during
same,Result of treatment (effect of increased dose on analgesic response),"[1]; Case 1, increased dose 550 mg, 5-8 months",did not prolong
same,Pain on movement,"[1]; Case 1, just hours after last cetuximab infusion, after 20 months of monotherapy",from nine to two
same,Pain at rest,"[1]; Case 1, just hours after last cetuximab infusion, after 20 months of monotherapy, no increase in analgesics",from five to two
same,Result of treatment (analgesic effect),"[1]; Case 1, lower dose 150 mg at 6 weeks to assess dose-response and placebo effect",No resultant
same,Time to complete pain relief after first dose,"[1]; Case 2, CRPS1, weekly cetuximab infusions",≤ 24 h
same,Neuropathic pain response,[1]; [6],complete pain relief which persisted until the next infusion; also recorded: therapeutically successful; also recorded: relieved their NP
same,Neuropathic pain response,[1]; [7],"reduced significantly and in the following days, the NP disappeared completely; also recorded: After an eleven-day cetuximab wash-out, his NP began to relapse"
same,Neuropathic pain response,[1]; [8],complete relief of their NP
same,Time to pain recurrence after the last cetuximab infusion,[1]; cases 1 and 3,11 to 14 days
same,NP relief (summary of the cases),[1],led to complete NP relief
same,Pain reduction,"[1]; general statement, 4-6 h after intravenous administration",about 90%
same,"24-hour morphine requirement, depot","[3]; Case 1, 2-4 months, just after infusion",Depot: 90 mg
same,"24-hour morphine requirement, depot","[3]; Case 1, 2-4 months, just before next dose","infusion, 180 mg"
same,"24-hour morphine requirement, immediate release","[3]; Case 1, 4 weeks, 120-180 mg at time 0",none
same,"24-hour morphine requirement, depot","[3]; Case 1, 5-8 months, just after infusion",Depot: 290 mg
same,"24-hour morphine requirement, depot","[3]; Case 1, 5-8 months, just before next dose",to 480 mg just
same,"24-hour morphine requirement, immediate release","[3]; Case 1, 6 weeks to 5-8 months",Immediate release: none except
same,24-hour morphine requirement,"[3]; Case 1, 6 weeks, after lower cetuximab dose 150 mg",Increased
same,Opiate use,"[3]; Case 1, XELOX and cetuximab, after two treatments, 200 mg dolcontin per 24 hours at outset",practically stopped all opiate use
same,"Opioid dose immediately following cetuximab infusion, as fraction of the end-of-cycle dose","[3]; Case 1, cetuximab monotherapy",approximately ⅓
same,"24-hour morphine requirement, depot","[3]; Case 1, cetuximab monotherapy, 4 weeks, 290 mg at time 0",150 mg
same,Depot opioid dose,"[3]; Case 1, within four weeks after first cetuximab monotherapy infusion, 320 mg/24 hours before",cut their depot opioid dose in half
same,Reduction of opioid and gabapentin doses,"[3]; Case 4, three days after first cetuximab treatment, 24-hour morphine-equivalent dose 1800 mg before",50%
same,Effect on vasomotor pathology / symptoms of CRPS1,[4],did not influence
same,Pelvic lesion on MRI,[5]; eight months after starting cetuximab monotherapy,an increase in the offending lesion
same,Pelvic tumor size on MRI,[5]; four months after starting XELOX and cetuximab,no change
same,EGF-mediated tumor cell growth in vitro,tumor cell,inhibit EGF-mediated tumor cell growth in vitro
same,Human tumor formation in vivo,human tumor,inhibit human tumor formation in vivo in nude mice
